High-throughput results deposited in PubChem BioAssay by ICCB-Longwood Screening Facility, Harvard Medical School.
Only a selection was taken, and hits are over-represented in it overall.
GIV Gai3 FP – inhibitors of GIV peptide binding to Galpha-i3, primary screen, biochemical, fluorescence polarization, FITC-GIV GBA peptide, rat Galphai3. Guanine nucleotide-binding protein G(i) subunit alpha-3 (Rattus norvegicus), P08753. 90 min; stronger effect = lower value; scaled: aluminum fluoride 0%, vehicle 100%. percent of control (FP), % (test concentration not listed). hit rate 0.42% among 210,000. AID 1224905, 2016;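 active = replicate mean at 85% of control or lower, very high polarization wells dropped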;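 note: wells of about 15 µL received 100 nL stock; the first replicate is given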
GIV Gai FP conf – inhibitors of GIV peptide binding to Galpha-i3, confirmation, biochemical, fluorescence polarization, FITC-GIV peptide, rat Galphai3; shares compounds with GIV Gai3 FP; active compounds read low; fluorescence polarization, mP at 100 µM; hit rate 38% among 580;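 active = inhibition score of 15 or more, meaning 100 minus mean polarization as percent of control over three replicates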;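 also: lower mP means peptide displaced from Galphai3 so more inhibition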
GIV-Gai AS conf – inhibitors of GIV binding to Galpha-i3, confirmation, orthogonal assay for GIV-Galpha-i inhibitor project, biochemical, AlphaScreen, His-GIV, GST-Galphai3. hit rate 39% among 580. shares compounds with GIV Gai3 FP. purified proteins, 90 min; active compounds read low. AlphaScreen counts at 100 µM;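 active = inhibition score at or above a set limit, where the score is 100 minus the three-replicate mean percent of control signal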
Of the large screens only hits and unclear results are named; the others gave an inactive call (follow-up assays come after a bar, where they were run).

Sequences of proteins named here, by UniProt entry; tags and fusion partners are left off.
Guanine nucleotide-binding protein G(i) subunit alpha-3 (Rattus norvegicus), P08753, UniProt P08753, whole entry, looked up: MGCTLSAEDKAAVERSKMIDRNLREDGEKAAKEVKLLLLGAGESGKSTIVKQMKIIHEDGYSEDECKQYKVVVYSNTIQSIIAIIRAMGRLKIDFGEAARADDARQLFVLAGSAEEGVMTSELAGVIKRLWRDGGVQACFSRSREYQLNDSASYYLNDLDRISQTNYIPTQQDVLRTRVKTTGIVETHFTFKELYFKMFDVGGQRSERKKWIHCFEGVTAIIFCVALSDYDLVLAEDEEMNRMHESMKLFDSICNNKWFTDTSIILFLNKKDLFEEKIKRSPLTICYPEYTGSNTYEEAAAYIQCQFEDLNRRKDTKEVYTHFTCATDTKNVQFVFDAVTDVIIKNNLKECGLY

CCOC(=O)c1ccc(NC(=O)Nc2cccc(OCc3cc(=O)n4ccc(C)cc4n3)c2)cc1	GIV Gai3 FP 84.7 | GIV Gai FP conf inactive | GIV-Gai AS conf inactive
COc1ccc(C)cc1NC(=O)Nc1cccc(OCc2cc(=O)n3ccc(C)cc3n2)c1	none
Cc1ccn2c(=O)cc(COc3ccc(NC(=O)Nc4cccc(Cl)c4C)cc3)nc2c1	none
COC(=O)c1ccc(NC(=O)c2nn(C)c3c2CS(=O)(=O)c2ccccc2-3)cc1	none | GIV Gai FP conf inactive | GIV-Gai AS conf inactive
Cn1nc(C(=O)Nc2ccc(F)cc2)c2c1-c1ccccc1S(=O)(=O)C2	none
COc1ccc(NC(=O)c2nn(C)c3c2CS(=O)(=O)c2ccccc2-3)cc1Cl	none
CCOC(=O)c1ccc(NC2=CC(C)(C(=O)OCC)N(c3ccccc3)C2=O)cc1 (stereo not given)	none
Cc1cc(N2CCN(c3ccccn3)CC2)n2nc(-c3ccccc3)c(C)c2n1	none
COC(=O)C(NC(=O)c1ccccc1Cl)(Nc1sc2c(c1C#N)CCC(C(C)(C)C)C2)C(F)(F)F (stereo not given)	none
CC(=O)N[C@H]1[C@H](OCCN2C(=O)c3ccccc3C2=O)O[C@H](CO)[C@@H](O)[C@@H]1O	none
COC(=O)c1ccc2[nH]c(C)cc(=O)c2c1	none
Cc1ccc(NC(=O)c2ccc3[nH]c(C)cc(=O)c3c2)cc1	none | GIV Gai FP conf inactive | GIV-Gai AS conf inactive
CCOc1ccc(NC(=O)c2ccc3[nH]c(C)cc(=O)c3c2)cc1	none
O=C(NCc1ccc(Cl)cc1)c1ccc(S(=O)(=O)c2ccccc2)nc1	none
CC1(C)CC(=O)c2cc(C(=O)Nc3ccccc3Cl)c(=O)[nH]c2C1	none
CCOC(=O)c1nc2ccccc2nc1NCc1ccco1	none
CCOC(=O)c1nn(-c2ccccc2)c(=O)cc1OCC(=O)NCc1ccc2c(c1)OCO2	none
CCOC(=O)c1nc2cc(C)c(C)cc2nc1NCc1ccc2c(c1)OCO2	GIV Gai3 FP 80.4 | GIV Gai FP conf inactive | GIV-Gai AS conf inactive
O=C(O)CCC(=O)Nc1nc2n(n1)C(c1ccc(Cl)cc1)C=C(c1ccccc1)N2 (stereo not given)	GIV Gai3 FP 62.8 | GIV Gai FP conf 44.3 | GIV-Gai AS conf 2477
O=C(O)CCCC(=O)Nc1nc2n(n1)C(c1ccc(Cl)cc1)C=C(c1ccc(Cl)cc1)N2 (stereo not given)	none
O=S(=O)(Nc1nc2n(n1)C(c1ccc(Cl)cc1)C=C(c1ccccc1)N2)c1ccc(Cl)cc1 (stereo not given)	none
COc1cccc(NC(=O)C2CCN(Cc3noc(-c4ccc(C)cc4)n3)CC2)c1	none
CC(C)CCNC(=O)N1CCC2(C1)C(=O)N(C)c1ccccc12 (stereo not given)	none
CN(C)c1ccc(/C=N/c2oc(-c3ccccc3)c(-c3ccccc3)c2C#N)cc1[N+](=O)[O-]	none
CCc1nnc2n1NC(c1ccccc1)C(C(=O)Nc1ccc(F)cc1)S2 (stereo not given)	none
Cc1ccc(S(=O)(=O)c2[nH]c(=S)sc2N2CCOCC2)cc1	none
O=S(=O)(Nc1cccn2c(C3CCC3)nnc12)c1ccc2c(c1)OCCO2	none
CC(=O)Nc1ccc2sc(C)nc2c1	none
CC(=O)Nc1ccc2oc(C)nc2c1	none
CC(=O)Nc1ccc2nc3c(=O)[nH]c(=O)[nH]c3nc2c1	GIV Gai3 FP 66.1 | GIV Gai FP conf 58.1 | GIV-Gai AS conf 5170
CCCCCC(=O)Nc1ccc(Cc2ccncc2)cc1	none
CCCCCCC(=O)Nc1ccc2nc3c(=O)[nH]c(=O)[nH]c3nc2c1	GIV Gai3 FP 83.2 | GIV Gai FP conf 44.3 | GIV-Gai AS conf 16182
CCCCC(=O)Nc1cc2[nH]c(=O)[nH]c2cc1C	none
COc1ccc(C(=O)N2CCC(NS(=O)(=O)c3ccc(OC)cc3)CC2)cc1	none
CCC1C/C(=C\c2ccc(Br)cc2)C(=O)/C(=C/c2ccc(Br)cc2)C1 (stereo not given)	none
NC(=O)COc1ccc(C=C2C(=O)c3ccccc3C2=O)cc1	none
CCC1C/C(=C\c2ccc(OCC(N)=O)cc2)C(=O)/C(=C/c2ccc(OCC(N)=O)cc2)C1 (stereo not given)	none | GIV Gai FP conf inactive | GIV-Gai AS conf 15830
O=c1oc2ccc3ccccc3c2cc1C1=Nn2c(nnc2-c2ccccc2)SC1	none
CCOC(=O)c1[nH]c2ccccc2c1N	none
Nn1c(=O)[nH]c2sc3c(c2c1=O)CCCC3	none
COC(=O)c1c(N)sc2c1CCCC2	none
CCOC(=O)c1[nH]c2sc(C)c(C)c2c1N	GIV Gai3 FP 82.6 | GIV Gai FP conf inactive | GIV-Gai AS conf 8984
CCOC(=O)c1[nH]c(C)c(C)c1O	none
COC(=O)c1[nH]c2sc3c(c2c1N)CCCC3	GIV Gai3 FP 20.1 | GIV Gai FP conf 38.9 | GIV-Gai AS conf 8300
Cn1c(=O)c(N2CCC(C(=O)NCCc3c[nH]c4ccccc34)CC2)nc2cccnc21	none
CC(C)C(C(=O)O)N1C(=O)/C(=C/c2ccc(Cl)cc2Cl)SC1=S (stereo not given)	none
COCCN1Cc2cccc(C(=O)N3CCN(c4cccc(C)c4)C(C)C3)c2C1=O (stereo not given)	none
CCOC(=O)c1ccccc1NC(=O)c1c(C)oc2ccc(OCc3ccccc3)cc12	none
O=C(Nc1ccc(F)c(Cl)c1)Nc1cc(NC(=O)c2ccccc2Cl)ccc1N1CCCCC1	none
Cc1cc2c(cc1C)N(C(=O)C(C)C)C(C)(C)c1ssc(=S)c1-2	none | GIV Gai FP conf inactive | GIV-Gai AS conf inactive
Cc1cc(C)c2c(c1)-c1c(ssc1=S)C(C)(C)N2C(=O)C(C)C	none
CCC(C)C(=O)N1c2cc(C)c(C)cc2-c2c(ssc2=S)C1(C)C (stereo not given)	none
COc1cccc(C2CC(=O)Nc3c2c(-c2ccccc2)nn3-c2ccccc2)c1OC (stereo not given)	none
Cn1c(=O)n(C)c2cc(S(=O)(=O)CC(=O)NC3CC3)ccc21	none
O=c1[nH]c2ccccc2nc1NCc1ccccc1	none
Nc1nc(NCc2ccccc2)c(I)c(=O)[nH]1	GIV Gai3 FP 50.2 | GIV Gai FP conf 46.3 | GIV-Gai AS conf 2457
Cc1n[nH]c(=O)nc1NCc1ccccc1	none
Fc1cccc(CSc2nccn3nc(-c4ccc(Br)cc4)cc23)c1	none
COc1ccccc1C(=O)Nc1ccccc1SCc1cc(=O)c2ccccc2[nH]1	GIV Gai3 FP 52.7 | GIV Gai FP conf 53.1 | GIV-Gai AS conf inactive
COc1ccc(C(=O)Nc2ccccc2SCc2cc(=O)c3cccc(C)c3[nH]2)cc1	none
CCC(CC)C(=O)Nc1ccccc1SCc1cc(=O)c2cccc(C)c2[nH]1	none
Cc1ccc(C2=Nc3ccccc3N=C(c3cc(C)ccc3O)C2)cc1	none
S=C(Nc1ccc2nsnc2c1)N1CCCC1	GIV Gai3 FP 80.9 | GIV Gai FP conf 23.5 | GIV-Gai AS conf 11675
CCN(CC)C(=S)Nc1ccc2nsnc2c1	GIV Gai3 FP 65.6 | GIV Gai FP conf 26.7 | GIV-Gai AS conf 10807
Fc1ccc(NC(=S)N2CCCCC2)cc1	none
CCN(CC)C(=S)Oc1ccccc1C(=O)Nc1ccc(Cl)c(Cl)c1	none
COc1cccc(NC(=O)c2ccc3nsnc3c2)c1	none
O=c1c2cc(NC(=S)N3CCCCCC3)ccc2nc2n1CCCCC2	none
Cc1c(Cl)c(C)c(C2=NON3N(C(=O)C(C)C)c4ccccc4N23)c(C)c1Cl	none
